Kd data for one substance are collected here from article doi:10.1101/521815.

By pKd is commonly meant −log10 of the Kd, conventionally taken in molar units.

pKd: −log10 of the molar value.

The experiment deals with GST-ABIN-1 UBAN (aa 463-532) E484A (mouse) (UniProt Q9WUU8). The experiment is described as follows: SPR. (Surface plasmon resonance follows binding to a sensor surface in real time, without labels.)

In turn, “M1-linked tetra-ubiquitin (from UniProt P0CG48 1-76; P0CG48 1-76; P0CG48 1-76; P0CG48 1-76)” gave a negative-log Kd (pKd) of 6.21.
